Assay results: paper PMC5153249
pKd: −log10 of the molar value. Where “and” joins values, the source holds several entries; their conditions need not be identical. Equal entries are not always repeated. Values belong to the substance of their own block, whether it stands above or below them.

Experiments:
[1] = molecular target: 43S pre-initiation complex (40S ribosomal subunit, eIF1, eIF1A and eIF2•GDPNP•Met-tRNAi ternary complex); called 48S PIC when AUG-containing model mRNA is added (yeast) (UniProt P32911); assay: other; 43S PIC, no mRNA
[2] = molecular target: 48S pre-initiation complex (40S, eIF1, eIF1A, ternary complex, AUG-containing model mRNA) (S. cerevisiae) (UniProt P32911); assay: other; 48S PIC, + mRNA
[3] = molecular target: ternary complex eIF2•GDPNP•Met-tRNAi (S. cerevisiae) (UniProt P20459); assay: native gel or EMSA; gel shift monitoring [35S]-Met-tRNAi; 1 µM eIF1, 1 µM eIF1A, 200 nM eIF2, 1 mM GDPNP, 1 nM Met-tRNAi, 500 nM eIF3 where present, no mRNA; 40S subunits titrated 10-320 nM; 1X Recon buffer, 26 °C, 2 h; apparent KD, Langmuir isotherm; single experiments
[4] = molecular target: 43S pre-initiation complex (40S, eIF1, eIF1A, ternary complex; no mRNA) (S. cerevisiae) (UniProt P32911); assay: native gel or EMSA; gel shift monitoring [35S]-Met-tRNAi; 43S PICs without mRNA (1 µM eIF1, 1 µM eIF1A, 200 nM eIF2, 1 mM GDPNP•Mg2+, 2 nM Met-tRNAi, 30 nM 40S); eIF3 titrated 30-500 nM; 1X Recon buffer (30 mM HEPES-KOH pH 7.4, 100 mM KOAc, 3 mM Mg(OAc)2, 2 mM DTT), 26 °C, 2 h; apparent KD, Hill equation; single experiments; apparent affinities ≤ 30 nM likely upper limits
[5] = molecular target: 48S pre-initiation complex (40S, eIF1, eIF1A, ternary complex, AUG-containing model mRNA) (S. cerevisiae) (UniProt P32911); assay: native gel or EMSA; gel shift monitoring [35S]-Met-tRNAi; 48S PICs with 1 µM uncapped AUG-containing model mRNA (1 µM eIF1, 1 µM eIF1A, 200 nM eIF2, 1 mM GDPNP•Mg2+, 2 nM Met-tRNAi, 20 nM 40S); eIF3 titrated 30-500 nM; 1X Recon buffer, 26 °C, 2 h; apparent KD, Hill equation; single experiments; apparent affinities ≤ 30 nM likely upper limits
[6] = molecular target: 43S pre-initiation complex (40S ribosomal subunit, eIF1, eIF1A and eIF2•GDPNP•Met-tRNAi ternary complex); called 48S PIC when AUG-containing model mRNA is added (yeast) (UniProt P32911); assay: native gel or EMSA; eIF3 (30-500 nM) titrated into 48S PICs: 1 µM uncapped AUG-containing model mRNA, 20 nM 40S, 1 µM eIF1, 1 µM eIF1A, 200 nM eIF2, 1 mM GDPNP•Mg2+, 2 nM [35S]-Met-tRNAi; 26 °C, 2 h; apparent KD from a Hill fit
[7] = molecular target: 43S pre-initiation complex (40S ribosomal subunit, eIF1, eIF1A and eIF2•GDPNP•Met-tRNAi ternary complex); called 48S PIC when AUG-containing model mRNA is added (yeast) (UniProt P32911); assay: native gel or EMSA; eIF3 (30-500 nM) titrated into 43S PICs without mRNA: 30 nM 40S, 1 µM eIF1, 1 µM eIF1A, 200 nM eIF2, 1 mM GDPNP•Mg2+, 2 nM [35S]-Met-tRNAi; 1X Recon buffer (30 mM HEPES-KOH pH 7.4, 100 mM KOAc pH 7.6, 3 mM Mg(OAc)2, 2 mM DTT); 26 °C, 2 h; apparent KD from a Hill fit, free eIF3 corrected for free …
[8] = molecular target: ternary complex (eIF2•GDPNP•[35S]-Met-tRNAi) (yeast) (UniProt P20459); assay: native gel or EMSA; as a3 but with 500 nM eIF3 (WT or the variant named in the row's quantity), no mRNA; apparent KD, Langmuir fit
[9] = molecular target: ternary complex (eIF2•GDPNP•[35S]-Met-tRNAi) (yeast) (UniProt P20459); assay: native gel or EMSA; 40S subunits (10-320 nM) titrated against TC (200 nM eIF2, 1 mM GDPNP, 1 nM [35S]-Met-tRNAi) with 1 µM eIF1 and 1 µM eIF1A, no mRNA, no eIF3; 1X Recon buffer, 26 °C, 2 h; apparent KD, Langmuir fit

pKd [1]: 7.22
pKd [2]: 7.08
Substance: eIF3 variant Box37 (eIF3a/Tif32 NTD, alanine substitution of 361-370) (from UniProt P38249 1-964; P06103 1-763; P32497 1-812; P40217 1-347; Q04067 1-274)

pKd [4]: 7.00
pKd [5]: 7.26
Substance: eIF3 variant R731I (eIF3a/Tif32 CTD) (from UniProt P38249 1-964; P06103 1-763; P32497 1-812; P40217 1-347; Q04067 1-274) (complex)

pKd [1]: 7.08
pKd [2]: 6.98
Substance: eIF3 variant prt1-1 (eIF3b/Prt1 S555F) (from UniProt P38249 1-964; P06103 1-763; P32497 1-812; P40217 1-347; Q04067 1-274)

pKd [3]: 8.07 and 7.83
Substance: 40S•eIF1•eIF1A with eIF3 variant H725P (from UniProt P32911 1-108; P38912 1-153; P38249 1-964; P06103 1-763; P32497 1-812; P40217 1-347; Q04067 1-274) (complex)

fold decrease of apparent affinity against WT eIF3 [6]: 2 fold
fold decrease of apparent affinity against WT eIF3 [7]: < 2 fold
Substance: eIF3 variant ∆8 (eIF3a/Tif32 NTD, N-terminal truncation of aa 1-200) (from UniProt P38249 201-964; P06103 1-763; P32497 1-812; P40217 1-347; Q04067 1-274) (complex)

pKd [1]: > 7.57
pKd [2]: > 7.42
Substance: eIF3 variant GAP^85 (eIF3c/Nip1 NTD, deletion of aa 60-144) (from UniProt P38249 1-964; P06103 1-763; P32497 1-812; P40217 1-347; Q04067 1-274)

pKd [3]: 7.05 and 6.93
Substance: 40S•eIF1•eIF1A (no eIF3) (from UniProt P32911 1-108; P38912 1-153) (complex)

pKd [6]: > 7.42
pKd [7]: > 7.42
Substance: wild-type eIF3 (S. cerevisiae eukaryotic translation initiation factor 3, five essential subunits) (from UniProt P38249 1-964; P06103 1-763; P32497 1-812; P40217 1-347; Q04067 1-274) (complex)

pKd [1]: > 7.66
pKd [2]: 7.28
Substance: eIF3 variant KLF (eIF3g/Tif35 K194A/L235A/F237A) (from UniProt P38249 1-964; P06103 1-763; P32497 1-812; P40217 1-347; Q04067 1-274)

pKd [1]: > 7.52
pKd [2]: 7.31
Substance: eIF3 variant Q258R (eIF3i/Tif34 Q258R) (from UniProt P38249 1-964; P06103 1-763; P32497 1-812; P40217 1-347; Q04067 1-274)

KD in the presence of WT eIF3 [8]: 15 nM
fold weakening of KD in the presence of prt1-1 eIF3 against WT eIF3 [8]: 3 fold
fold weakening of KD in the presence of rnp1 eIF3 against WT eIF3 [8]: 2 fold
fold weakening of KD in the presence of the a/b/c sub-complex against WT eIF3 [8]: 3 fold
pKd [9]: 6.98
Substance: 40S ribosomal subunit with eIF1 and eIF1A (40S•eIF1•eIF1A) (from UniProt P32911 1-108; P38912 1-153) (complex)

Second part, the substance before the results:

Substance: eIF3 variant R731I (eIF3a/Tif32 CTD R731I) (from UniProt P38249 1-964; P06103 1-763; P32497 1-812; P40217 1-347; Q04067 1-274)
pKd [1]: 6.95
pKd [2]: 7.30

Substance: 40S•eIF1•eIF1A with the eIF3a/b/c sub-complex (from UniProt P32911 1-108; P38912 1-153; P38249 1-964; P06103 1-763; P32497 1-812)
pKd [3]: 7.39 and 7.36

Substance: eIF3 variant Box12-SPW (eIF3c/Nip1 NTD K111S/K114P/K116W) (from UniProt P38249 1-964; P06103 1-763; P32497 1-812; P40217 1-347; Q04067 1-274)
pKd [1]: 7.17
pKd [2]: 7.16

Substance: 40S•eIF1•eIF1A with WT eIF3 (from UniProt P32911 1-108; P38912 1-153; P38249 1-964; P06103 1-763; P32497 1-812; P40217 1-347; Q04067 1-274) (complex)
pKd [3]: 7.81 and 7.86

Substance: eIF3 variant ∆60 (eIF3c/Nip1 CTD, C-terminal truncation of aa 753-813) (from UniProt P38249 1-964; P06103 1-763; P32497 1-752; P40217 1-347; Q04067 1-274)
pKd [1]: > 7.62
pKd [2]: 7.33

Substance: 40S•eIF1•eIF1A with eIF3 variant ∆8 (from UniProt P32911 1-108; P38912 1-153; P38249 201-964; P06103 1-763; P32497 1-812; P40217 1-347; Q04067 1-274) (complex)
pKd [3]: 8.05 and 8.42

Substance: eIF3 (wild type) (from UniProt P38249 1-964; P06103 1-763; P32497 1-812; P40217 1-347; Q04067 1-274) (complex)
pKd [5]: 7.43 and 7.42

Substance: eIF3 variant H725P (eIF3a/Tif32 CTD) (from UniProt P38249 1-964; P06103 1-763; P32497 1-812; P40217 1-347; Q04067 1-274) (complex)
pKd [4]: 7.07 and 7.14
pKd [5]: 7.20 and 7.21

Substance: 40S•eIF1•eIF1A with eIF3 variant R731I (from UniProt P32911 1-108; P38912 1-153; P38249 1-964; P06103 1-763; P32497 1-812; P40217 1-347; Q04067 1-274) (complex)
pKd [3]: 8.22 and 8.10

Substance: eIF3 variant Box6 (eIF3a/Tif32 CTD, alanine substitution of 692-701) (from UniProt P38249 1-964; P06103 1-763; P32497 1-812; P40217 1-347; Q04067 1-274)
pKd [1]: > 7.46
pKd [2]: > 7.42

Substance: 40S•eIF1•eIF1A with eIF3 variant Q258R (from UniProt P32911 1-108; P38912 1-153; P38249 1-964; P06103 1-763; P32497 1-812; P40217 1-347; Q04067 1-274) (complex)
pKd [3]: 7.91 and 7.73

Substance: eIF3 variant ∆8 (eIF3a/Tif32 NTD, N-terminal truncation of aa 1-200) (from UniProt P38249 201-964; P06103 1-763; P32497 1-812; P40217 1-347; Q04067 1-274)
pKd [1]: 7.07
pKd [2]: 7.05

Substance: eIF3 variant rnp1 (eIF3b/Prt1 RRM, alanine substitution of 124-130) (from UniProt P38249 1-964; P06103 1-763; P32497 1-812; P40217 1-347; Q04067 1-274)
pKd [1]: 6.96
pKd [2]: 6.80

Substance: eIF3 variant H725P (eIF3a/Tif32 CTD H725P) (from UniProt P38249 1-964; P06103 1-763; P32497 1-812; P40217 1-347; Q04067 1-274)
pKd [1]: 7.10
pKd [2]: 7.20

Substance: eIF3 variant Q258R (eIF3i/Tif34) (from UniProt P38249 1-964; P06103 1-763; P32497 1-812; P40217 1-347; Q04067 1-274) (complex)
pKd [4]: 7.48 and 7.57
pKd [5]: 7.48 and 7.19

Substance: eIF3 variant ∆8 (eIF3a/Tif32 NTD) (from UniProt P38249 201-964; P06103 1-763; P32497 1-812; P40217 1-347; Q04067 1-274) (complex)
pKd [4]: 7.08 and 7.05
pKd [5]: 7.05 and 7.06
